Measured values: the DeepSol protein solubility set

Test: soluble on expression in E. coli; label from the status in PepcDB or PDB records

Row | Sequence | soluble on expression in E. coli
1 | MEAGRPRPVLRSVNSREPSQVIFCNRSPRVVLPVWLNFDGEPQPYPTLPPGTGRRIHSYRGHLWLFRDAGTHDGLLVNQTELFVPSLNVDGQPIFANITLPVYTLKERCLQVVRSLVKPENYRRLDIVRSLYEDLEDHPNVQKDLERLTQERIAHQRMGD | soluble
2 | VDPTHFEKRFLKRIRDLGEGHFGKVELCRYDPEGDNTGEQVAVKSLKPESGGNHIADLKKEIEILRNLYHENIVKYKGICTEDGGNGIKLIMEFLPSGSLKEYLPKNKNKINLKQQLKYAVQICKGMDYLGSRQYVHRDLAARNVLVESEHQVKIGDFGLTKAIETDKEYYTVKDDRDSPVFWYAPECLMQSKFYIASDVWSFGVTLHELLTYCDSDSSPMALFLKMIGPTHGQMTVTRLVNTLKEGKRLPCPPNCPDEVYQLMRKCWEFQPSNRTSFQNLIEGFEALLK | soluble
